Measured values: patent publication US8530663B2, “1-(2-phenoxymethylheteroaryl)piperidine and piperazine compounds” (Theravance, Inc., priority 2010, dated 2013)
Marks after values point to notes of the source that are not given here.

By UniProt entry, the sequences of proteins in these tests, tags left out.
UniProt P31645, whole entry: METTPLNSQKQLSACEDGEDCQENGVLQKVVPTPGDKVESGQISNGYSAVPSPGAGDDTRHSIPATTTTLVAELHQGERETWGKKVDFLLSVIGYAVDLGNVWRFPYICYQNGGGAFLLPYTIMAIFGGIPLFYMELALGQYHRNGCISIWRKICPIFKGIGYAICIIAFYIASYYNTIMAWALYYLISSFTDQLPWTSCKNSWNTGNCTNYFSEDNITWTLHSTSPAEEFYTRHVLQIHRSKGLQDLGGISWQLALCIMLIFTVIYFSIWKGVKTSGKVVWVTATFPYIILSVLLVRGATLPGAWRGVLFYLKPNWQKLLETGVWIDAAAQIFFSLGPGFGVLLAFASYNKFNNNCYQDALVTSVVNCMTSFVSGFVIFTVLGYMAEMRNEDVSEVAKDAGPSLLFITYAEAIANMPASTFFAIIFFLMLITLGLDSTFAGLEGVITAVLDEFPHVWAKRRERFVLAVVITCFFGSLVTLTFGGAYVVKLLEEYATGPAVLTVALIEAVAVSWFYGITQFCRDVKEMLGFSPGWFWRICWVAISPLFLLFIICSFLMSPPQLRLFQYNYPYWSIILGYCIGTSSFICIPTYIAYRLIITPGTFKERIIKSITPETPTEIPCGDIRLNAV
UniProt P23975, whole entry: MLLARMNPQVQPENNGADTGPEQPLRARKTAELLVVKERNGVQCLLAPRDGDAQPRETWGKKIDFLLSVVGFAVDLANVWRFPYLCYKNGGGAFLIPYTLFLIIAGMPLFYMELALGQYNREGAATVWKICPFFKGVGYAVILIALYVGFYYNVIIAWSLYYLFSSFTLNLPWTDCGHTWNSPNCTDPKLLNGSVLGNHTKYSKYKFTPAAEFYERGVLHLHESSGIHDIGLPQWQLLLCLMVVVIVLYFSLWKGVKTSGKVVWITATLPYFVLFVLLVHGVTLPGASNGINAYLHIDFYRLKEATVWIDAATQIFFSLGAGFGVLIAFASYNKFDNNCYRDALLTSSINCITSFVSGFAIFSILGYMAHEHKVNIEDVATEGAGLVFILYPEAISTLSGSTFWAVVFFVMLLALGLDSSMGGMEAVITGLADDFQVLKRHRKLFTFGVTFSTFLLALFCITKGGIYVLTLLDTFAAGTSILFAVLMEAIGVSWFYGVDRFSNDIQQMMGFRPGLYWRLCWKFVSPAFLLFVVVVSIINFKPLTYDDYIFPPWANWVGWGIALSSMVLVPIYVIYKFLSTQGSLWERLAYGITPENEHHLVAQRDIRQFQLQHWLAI

Assays:
hSERT [1] = target: T1, hSERT (Homo sapiens, UniProt P31645); test: fluorescence-based serotonin reuptake assay (Tsuruda et al. 2010; data with asterisk); conditions: serotonin reuptake inhibition, fluorescence-based assay (data indicated by an asterisk)
hNET [2] = target: T2, hNET (Homo sapiens, UniProt P23975); test: fluorescence-based norepinephrine reuptake assay (Tsuruda et al. 2010; data with asterisk); conditions: norepinephrine reuptake inhibition, fluorescence-based assay (data indicated by an asterisk)
hNET [3] = target: T2, hNET; test: hNET membrane radioligand binding assay (3H-nisoxetine); conditions: hNET membranes, 1.0 nM 3H-nisoxetine
hSERT [4] = target: T1, hSERT; test: hSERT membrane radioligand binding assay (3H-citalopram); conditions: hSERT membranes, 1.0 nM 3H-citalopram

Row | SERT pIC50 (hSERT [1]) | NET pIC50 (hNET [2]) | NET pKi (hNET [3]) | SERT pKi (hSERT [4]) | Structure (SMILES)
1 | ≧6.0* | ≧6.0* |  |  | Clc1cccc(Cl)c1OCc1ccoc1C1CCNCC1
2 |  |  | ≧5.0 | ≧7.0 | Fc1ccc(F)c(OCc2sccc2C2CCNCC2)c1Cl
3 | ≧7.0* | ≧7.0* |  |  | Fc1cc(F)c(OCc2ccoc2C2CCNCC2)c(F)c1
4 |  |  | ≧7.0 | ≧7.0 | Fc1ccc(F)c(OCc2cccnc2C2CCNCC2)c1Cl
5 |  |  | ≧6.0 | ≧7.0 | Fc1ccc(F)c(OCc2ccsc2C2CCNCC2)c1Cl
